Assay results published in patent US20130012465A1 (Boehringer Ingelheim International GmbH, priority 2009, published 2013).

System: SUM149 Xenografts
Test: triple negative, EGFR positive SUM149 Xenografts in mice
Type: in vivo
Conditions: 10 mg/kg/q2w

Herceptin: trastuzumab (herceptin), protein kinase receptor antagonist not classified under the synthetic small molecules
T/C [%] Day 42: 153%
